These are literature values, as cited in patent US20200206183A1, “SYSTEMS, METHODS, AND FORMULATIONS FOR TREATING CANCER” (Research Cancer Institute of America, priority 2011, published 2020).

The conditions of this data set: subcutaneous application.

Regarding Octreotide, the Absorption result was “absorbed quickly and completely”; the “Time to maximal plasma concentration” value was 30 min.
